{"source": "patent US7541342B2", "about": "“Use of PKC-activating compounds as cardioprotectants and as apoptosis-inducing anti-tumor agents” (University of Tennessee Research Foundation, priority 2005, dated 2009)", "key": {"K562 cells": {"system": "K562 cells", "assay": "Cytotoxicity analysis in K562 cells", "settings": "3 μM AD 288"}, "32D.3 cells": {"system": "32D.3 cells", "assay": "Cell viability determination by trypan blue staining", "settings": "cells with trans-dominant negative PKC-δ"}}}
{"smiles": "COc1cccc2c1C(=O)c1c(O)c3c(c(O)c1C2=O)C[C@@](O)(C(=O)CO)CC3O[C@H]1C[C@H](NCc2ccccc2)[C@H](O)[C@H](C)O1", "note": "(some centres unmarked) [AD 288, N-Benzyladriamycin]", "values": [{"measurement": "effect of PKC inhibitors (rottlerin, Go6976) on cytotoxicity", "setting": "K562 cells", "result": "not affected"}, {"measurement": "effect of reduced PKC activity on cytotoxicity", "setting": "32D.3 cells", "result": "no apparent effect"}]}
